Reference: patent EP4603105A1, “PHARMACEUTICAL COMPOSITION CONTAINING CYCLIC COMPOUND HAVING SELECTIVE KRAS INHIBITORY EFFECT AGAINST HRAS AND NRAS” (CHUGAI SEIYAKU KABUSHIKI KAISHA, priority 2022, dated 2024)

Sequences of proteins named here, by UniProt entry; tags and fusion partners are left off.
UniProt P01112, whole entry: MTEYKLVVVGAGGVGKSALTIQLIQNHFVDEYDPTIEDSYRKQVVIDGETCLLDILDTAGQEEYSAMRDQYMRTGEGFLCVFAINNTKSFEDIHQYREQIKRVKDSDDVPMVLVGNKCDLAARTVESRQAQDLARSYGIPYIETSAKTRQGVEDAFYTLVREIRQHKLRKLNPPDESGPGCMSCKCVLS

What follows are compounds tested against HRAS wild-type protein (Homo sapiens, UniProt P01112) (assay: Binding to HRAS by surface plasmon resonance (SPR), KD and KD ratio to KRAS). Details: ratio of KD for HRAS wild-type protein to KD for KRAS.

SMILES	HRAS /KRAS
CCC[C@H]1C(=O)N[C@@H]([C@@H](C)CC)C(=O)N2CCC[C@H]2C(=O)N(C)[C@H]2C/C=C\CCN(C2=O)[C@@H](CC2CCC(F)(F)CC2)C(=O)N(C)CC(=O)N[C@@H](CCc2ccc(C(F)(F)F)c(OC)c2)C(=O)N2C[C@H](OCC)C[C@H]2C(=O)N(C)C2(CCC2)C(=O)N(C)[C@@H](C2CCCC2)C(=O)N(C)[C@H](C(=O)N(C)C)CC(=O)N1C	A (a compound having 10 or more and less than 20 is denoted as A)
CCCOC[C@H]1C(=O)N[C@@H]([C@@H](C)OCC)C(=O)N2CCC[C@H]2C(=O)N(C)[C@H]2C/C=C\CCN(C2=O)[C@@H](Cc2ccc(C)cc2)C(=O)N(C)CC(=O)N[C@@H](CCc2ccc(C(F)(F)F)c(OC)c2)C(=O)N2C[C@@H](C)C[C@H]2C(=O)NC2(CC(C)(C)C2)C(=O)N(C)[C@@H](C2CCCC2)C(=O)N(C)[C@H](C(=O)N(C)CC)CC(=O)N1C	A (a compound having 10 or more and less than 20 is denoted as A)
CC[C@H](C)[C@@H]1NC(=O)[C@H](COC)N(C)C(=O)C[C@@H](C(=O)N(CC)CC)N(C)C(=O)[C@H](C2CCCC2)N(C)C(=O)C2(CC(C)(C)C2)NC(=O)[C@@H]2C[C@H](C)CN2C(=O)[C@H](CCc2ccc(C(F)(F)F)c(OC)c2)NC(=O)CN(C)C(=O)[C@H](Cc2ccc(C)cc2)N2CC/C=C\C[C@@H](C2=O)N(C)C(=O)CN(C)C1=O	A (a compound having 10 or more and less than 20 is denoted as A)
CCOC[C@H]1C(=O)N[C@@H]([C@@H](C)CC)C(=O)N(C)CC(=O)N(C)[C@H]2C/C=C\CCN(C2=O)[C@@H](Cc2ccc(C)cc2)C(=O)N(C)CC(=O)N[C@@H](CCc2cc(F)c(C(F)(F)F)c(F)c2)C(=O)N2C[C@@H](C)C[C@H]2C(=O)NC2(CC(C)(C)C2)C(=O)N(C)[C@@H](C2CCCC2)C(=O)N(C)[C@H](C(=O)N(C)CC)CC(=O)N1C	A (a compound having 10 or more and less than 20 is denoted as A)
CCOC[C@H]1C(=O)N[C@@H]([C@@H](C)CC)C(=O)N2CCC[C@H]2C(=O)N(C)[C@H]2C/C=C\CCN(C2=O)[C@@H](CC2CCC(F)(F)CC2)C(=O)N(C)CC(=O)N[C@@H](CCc2ccc(C(F)(F)F)c(OC)c2)C(=O)N2C[C@H](OCC)C[C@H]2C(=O)N(C)C2(CCC2)C(=O)N(C)[C@@H](C(CC)CC)C(=O)N(C)[C@H](C(=O)N(C)C)CC(=O)N1C	A (a compound having 10 or more and less than 20 is denoted as A)
CCO[C@@H]1C[C@H]2C(=O)NC3(CC(C)(C)C3)C(=O)N(C)[C@@H](C(CC)CC)C(=O)N(C)[C@H](C(=O)N(C)C)CC(=O)N(C)[C@@H](COC)C(=O)N[C@@H]([C@@H](C)CC)C(=O)N(C)CC(=O)N(C)[C@H]3C/C=C\CCN(C3=O)[C@@H](CC3CCCCC3)C(=O)N(C)CC(=O)N[C@@H](CCc3ccc(C(F)(F)F)c(OC)c3)C(=O)N2C1	A (a compound having 10 or more and less than 20 is denoted as A)

Same assay, conditions: ratio of KD with respect to HRAS wild-type protein to KD with respect to KRAS

SMILES	HRAS /KRAS
CCO[C@@H]1C[C@H]2C(=O)NC3(CCCC3)C(=O)N(C)[C@@H](C(CC)CC)C(=O)N(C)[C@H](C(=O)N3CCCC3)CC(=O)N(C)[C@@H](C)C(=O)N[C@@H]([C@@H](C)CC)C(=O)N(C)CC(=O)N(C)[C@H]3C/C=C\CCN(C3=O)[C@@H](CC3CCC(F)(F)CC3)C(=O)N(C)CC(=O)N[C@@H](CCc3cc(F)c(C(F)(F)F)c(F)c3)C(=O)N2C1	A (a compound having 10 or more and less than 20 is denoted as A)
CC[C@H](C)[C@@H]1NC(=O)[C@H](CC)N(C)C(=O)C[C@@H](C(=O)N(C)C)N(C)C(=O)[C@H](C2CCCC2)N(C)C(=O)C2(CCC2)NC(=O)[C@@H]2CC(F)(F)CN2C(=O)[C@H](CCc2cc(F)c(C(F)(F)F)c(F)c2)NC(=O)CN(C)C(=O)[C@H](CC2CCC(F)(F)CC2)N2CC/C=C\C[C@@H](C2=O)N(C)C(=O)CN(C)C1=O	A (a compound having 10 or more and less than 20 is denoted as A)
CCO[C@@H]1C[C@H]2C(=O)NC3(CCC3)C(=O)N(C)[C@@H](C3CCCC3)C(=O)N(C)[C@H](C(=O)N3CCOCC3)CC(=O)N(C)[C@@H](CCOC)C(=O)N[C@@H]([C@@H](C)CC)C(=O)N(C)CC(=O)N(C)[C@H]3CCCCCN(C3=O)[C@@H](Cc3ccc(F)cc3)C(=O)N(C)CC(=O)N[C@@H](CCc3cc(F)c(C(F)(F)F)c(F)c3)C(=O)N2C1	B (a compound having 3 or more and less than 10 is denoted as B)
CCC(C)C1NC(=O)C(CC)N(C)C(=O)CC(C(=O)N(C)C)N(C)C(=O)C(C2CCCC2)N(C)C(=O)C2(CCC2)NC(=O)C(CC2CCCCC2)N(C)C(=O)C(CCc2cc(F)c(C(F)(F)F)c(F)c2)NC(=O)CN(C)C(=O)C(Cc2ccc(C(F)(F)F)cc2)N2CCC=CCC(C2=O)N(C)C(=O)CN(C)C1=O (stereo not shown)	A (a compound having 10 or more and less than 20 is denoted as A)
CC[C@H](C)[C@@H]1NC(=O)[C@H](CC)N(C)C(=O)C[C@@H](C(=O)N(C)C)N(C)C(=O)[C@H](C2CCCC2)N(C)C(=O)C2(CCC2)NC(=O)[C@@H]2COCCN2C(=O)[C@H](CCc2cc(F)c(C(F)(F)F)c(F)c2)NC(=O)CN(C)C(=O)[C@H](Cc2ccc(C(F)(F)F)cc2)N2CC/C=C\C[C@@H](C2=O)N(C)C(=O)CN(C)C1=O	A (a compound having 10 or more and less than 20 is denoted as A)
CCO[C@@H]1C[C@H]2C(=O)NC3(CCC3)C(=O)N(C)[C@@H](C3CCCC3)C(=O)N(C)[C@H](C(=O)N3CCOCC3)CC(=O)N(C)[C@@H](C)C(=O)N[C@@H]([C@@H](C)CC)C(=O)N(C)CC(=O)N(C)[C@H]3C/C=C\CCN(C3=O)[C@@H](Cc3ccc(C(F)(F)F)cc3)C(=O)N(C)CC(=O)N[C@@H](CCc3cc(F)c(C(F)(F)F)c(F)c3)C(=O)N2C1	A (a compound having 10 or more and less than 20 is denoted as A)
CC[C@H](C)[C@@H]1NC(=O)[C@H](CC)N(C)C(=O)C[C@@H](C(=O)N2CCOCC2)N(C)C(=O)[C@H](C2CCCC2)N(C)C(=O)C2(CCC2)NC(=O)[C@@H]2CCCN2C(=O)[C@H](CCc2cc(F)c(C(F)(F)F)c(F)c2)NC(=O)CN(C)C(=O)[C@H](Cc2ccc(C(F)(F)F)cc2)N2C[C@H](C)CC[C@@H](C2=O)N(C)C(=O)CN(C)C1=O	B (a compound having 3 or more and less than 10 is denoted as B)
CCC[C@H]1C(=O)N[C@@H]([C@@H](C)CC)C(=O)N(C)CC(=O)N(C)[C@H]2C/C=C\CCN(C2=O)[C@@H](Cc2ccc(C(F)(F)F)cc2)C(=O)N(C)CC(=O)N[C@@H](CCc2ccc(Cl)c(Cl)c2)C(=O)N2C[C@H](OCC)C[C@H]2C(=O)NC2(CCC2)C(=O)N(C)[C@@H](C2CCCC2)C(=O)N(C)[C@H](C(=O)N(C)C)CC(=O)N1C	A (a compound having 10 or more and less than 20 is denoted as A)
CCC(C)C1NC(=O)C(CC)N(C)C(=O)CC(C(=O)N(C)C)N(C)C(=O)C(C2CCCC2)N(C)C(=O)C2(CCC2)NC(=O)C(COCCC(C)C)N(C)C(=O)C(CCc2cc(F)c(C(F)(F)F)c(F)c2)NC(=O)CN(C)C(=O)C(Cc2ccc(C(F)(F)F)cc2)N2CCC=CCC(C2=O)N(C)C(=O)CN(C)C1=O (stereo not shown)	A (a compound having 10 or more and less than 20 is denoted as A)
CCO[C@@H]1C[C@H]2C(=O)NC3(CCC3)C(=O)N(C)[C@@H](C(CC)CC)C(=O)N(C)[C@H](C(=O)N(C)C)CC(=O)N(C)[C@@H](COC)C(=O)N[C@@H]([C@@H](C)CC)C(=O)N(C)CC(=O)N(C)[C@H]3C/C=C\CCN(C3=O)[C@@H](Cc3ccc(C(F)(F)F)cc3)C(=O)N(C)CC(=O)N[C@@H](CCc3ccc(C(F)(F)F)c(OC)c3)C(=O)N2C1	A (a compound having 10 or more and less than 20 is denoted as A)
CC[C@H](C)[C@@H]1NC(=O)[C@H](CC)N(C)C(=O)C[C@@H](C(=O)N(C)C)N(C)C(=O)[C@H](C2CCCC2)N(C)C(=O)C2(CCC2)NC(=O)[C@@H]2CSCCN2C(=O)[C@H](CCc2cc(F)c(C(F)(F)F)c(F)c2)NC(=O)CN(C)C(=O)[C@H](Cc2ccc(C(F)(F)F)cc2)N2CC/C=C\C[C@@H](C2=O)N(C)C(=O)CN(C)C1=O	A (a compound having 10 or more and less than 20 is denoted as A)
CC[C@H](C)[C@@H]1NC(=O)[C@H](CC)N(C)C(=O)C[C@@H](C(=O)N(C)C)N(C)C(=O)[C@H](C2CCCC2)N(C)C(=O)C2(CCCC2)NC(=O)[C@@H]2CCCN2C(=O)[C@H](CCc2cc(F)c(C(F)(F)F)c(F)c2)NC(=O)CN(C)C(=O)[C@H](Cc2ccc(C(F)(F)F)cc2)N2C[C@H](C)[C@H](C)C[C@@H](C2=O)N(C)C(=O)CN(C)C1=O	B (a compound having 3 or more and less than 10 is denoted as B)
CCO[C@@H]1C[C@H]2C(=O)NC(C)(C)C(=O)N(C)[C@@H](C3CCCC3)C(=O)N(C)[C@H](C(=O)N(C)C)CC(=O)N(C)[C@@H](CC)C(=O)N[C@@H]([C@@H](C)CC)C(=O)N(C)CC(=O)N(C)[C@H]3C/C=C\CCN(C3=O)[C@@H](Cc3ccc(C(F)(F)F)cc3)C(=O)N(C)CC(=O)N[C@@H](CCc3cc(F)c(C(F)(F)F)c(F)c3)C(=O)N2C1	A (a compound having 10 or more and less than 20 is denoted as A)
CCO[C@@H]1C[C@H]2C(=O)NC3(CCC3)C(=O)N(C)[C@@H](C3CCCC3)C(=O)N(C)[C@H](C(=O)N(C)C)CC(=O)N(C)[C@@H](CC)C(=O)N[C@@H]([C@@H](C)CC)C(=O)N(C)CC(=O)N(C)[C@H]3C/C=C\CCN(C3=O)[C@@H](CC3CCC(F)(F)CC3)C(=O)N(C)CC(=O)N[C@@H](CCc3cc(F)c(C(F)(F)F)c(F)c3)C(=O)N2C1	A (a compound having 10 or more and less than 20 is denoted as A)
CCO[C@@H]1C[C@H]2C(=O)NC3(CCC3)C(=O)N(C)[C@@H](C(CC)CC)C(=O)N(C)[C@H](C(=O)N(C)C)CC(=O)N(C)[C@@H](CC3CC3)C(=O)N[C@@H]([C@@H](C)CC)C(=O)N(C)CC(=O)N(C)[C@H]3C/C=C\CCN(C3=O)[C@@H](Cc3ccc(C(F)(F)F)cc3)C(=O)N(C)CC(=O)N[C@@H](CCc3cc(F)c(Cl)c(F)c3)C(=O)N2C1	A (a compound having 10 or more and less than 20 is denoted as A)
CCO[C@@H]1C[C@H]2C(=O)NC3(CCC3)C(=O)N(C)[C@@H](C3CCCC3)C(=O)N(C)[C@H](C(=O)N(C)C)CC(=O)N(C)[C@@H](CC3CCC3)C(=O)N[C@@H]([C@@H](C)CC)C(=O)N(C)CC(=O)N(C)[C@H]3C/C=C\CCN(C3=O)[C@@H](CC3CCCCC3)C(=O)N(C)CC(=O)N[C@@H](CCc3cc(F)c(C(F)(F)F)c(F)c3)C(=O)N2C1	A (a compound having 10 or more and less than 20 is denoted as A)
